In assay [1] the target is T1, ɑ1AAR (Homo sapiens, UniProt P35348). The experiment in a line: α1AAR ligand screening, plasma membrane–ligand BRET (α1AAR with GLuc–PM). The settings on record: for inhibition at 10 µM: 20 min. Background: In BRET a luciferase serves as donor, and the signal depends on an acceptor being close.
For assay [2], the target named is T1, ɑ1AAR. The experiment in a line: PM–ligand BRET equilibrium binding, α1AAR with GLuc–PM. On the set-up: expressed in transfected cells; host or cells: HEK 293T. The settings on record: one site binding fit.
Assay [3] has as its target T2, GLuc–ɑ1AAR (Homo sapiens, UniProt P35348).
In assay [4] the target is T1, ɑ1AAR. The following applies: labeled ligand 150 nM for 15 min, washout, prazosin to prevent rebinding, one phase decay.
Assay [5] concerns the target T2, GLuc–ɑ1AAR. Nature of the assay: Receptor–ligand BRET equilibrium binding, GLuc–α1AAR in HEK 293T cells. On the set-up: Gaussia luciferase signal peptide (N); […]; expressed in transfected cells; host or cells: HEK 293T. The following applies: one site binding fit.
Where [6] appears, read: read-out: plasma membrane-ligand BRET decrease (%) Replicate1.
Where [7] appears, read: read-out: plasma membrane-ligand BRET decrease (%) Replicate2.

By UniProt entry, the sequences of proteins in these tests, tags left out. Where a name states a change or a piece, a line headed by the entry shows the natural chain unless it says otherwise.
UniProt P35348: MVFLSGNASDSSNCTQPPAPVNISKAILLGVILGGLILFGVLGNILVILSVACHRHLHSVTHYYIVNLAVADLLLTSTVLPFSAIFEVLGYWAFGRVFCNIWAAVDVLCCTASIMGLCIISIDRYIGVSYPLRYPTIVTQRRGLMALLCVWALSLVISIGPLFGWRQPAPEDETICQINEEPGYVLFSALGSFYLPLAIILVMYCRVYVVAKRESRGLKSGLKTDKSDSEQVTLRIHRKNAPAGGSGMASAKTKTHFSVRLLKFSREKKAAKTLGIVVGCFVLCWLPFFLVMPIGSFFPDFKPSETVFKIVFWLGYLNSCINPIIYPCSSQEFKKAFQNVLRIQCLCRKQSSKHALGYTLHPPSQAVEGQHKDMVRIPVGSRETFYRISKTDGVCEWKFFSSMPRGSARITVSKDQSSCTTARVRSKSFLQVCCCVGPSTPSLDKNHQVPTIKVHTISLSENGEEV

Read-outs that look alike come from different tables or passages of the source.

As for `Cc1c(C2C(C#N)=C(N)N(c3cccc([N+](=O)[O-])c3)C3=C2C(=O)CCC3)cnn1C` (centres unmarked) [BCC0038765], the inhibition at 10 µM was -1.67% in assay [1] (setting [6]) and -3.87% in assay [1] (setting [7]).
With BODIPY FL–prazosin, the Kd came out at 46.6 nM in assay [2] and 61.1 nM in assay [5]. Moreover, the koff in assay [3] (labeled ligand 150 nM for 15 min, washout, prazosin to prevent rebinding, one phase decay) came to 0.00184 s⁻¹; in assay [4], 0.00133 s⁻¹. Besides, the kon in assay [3] (labeled ligand 150 nM, association) is given as 3.86 × 10^4 s^−1M^−1.
Turning to `COc1cc2nc(N3CCN(C(=O)c4ccco4)CC3)nc(N)c2cc1OC` [prazosin, reference compound], in assay [1], the “plasma membrane-ligand BRET decrease (%) Replicate1” value was -100,72% and the “plasma membrane-ligand BRET decrease (%) Replicate2” value is given as -101,49%.
On to `Cc1cc(C(=O)Nc2nc3ccc(F)cc3s2)no1` [BCC0024436], for which the inhibition at 10 µM is -3.66% in assay [1] (setting [6]) and -6.56% in assay [1] (setting [7]).

The term Kd denotes a measure of binding affinity in units of concentration. One may read the koff as the rate constant with which the complex falls apart. Low readings indicate slow dissociation, high ones fast dissociation.

These data come from article PMC7950324, “A general method for quantifying ligand binding to unmodified receptors using Gaussia luciferase” (The Journal of Biological Chemistry, 2021).
